Values of other authors, collected in patent publication US9155776B2, “Low frequency glatiramer acetate therapy” (Yeda Research & Development Co., Ltd., priority 2009, dated 2015).

Test system: patients receiving GA
Settings: cited from earlier work

L-glutamic acid polymer with L-alanine, L-lysine, L-tyrosine, acetate (salt) [GA]
safety data accumulated in clinical trials (clinical trials): safe and well tolerated
proportion of patients reporting injection-site reactions at least once (controlled studies, placebo injections 37%): 70%
